# From US20250381149A1, “CATIONIC AMPHIPHILIC COMPOUND-BASED NANOPARTICLE COMPOSITIONS” (Universiteit Gent, priority 2022, published 2025)
# By UniProt entry, the sequences of proteins in these tests, tags left out.
# UniProt P28223, whole entry: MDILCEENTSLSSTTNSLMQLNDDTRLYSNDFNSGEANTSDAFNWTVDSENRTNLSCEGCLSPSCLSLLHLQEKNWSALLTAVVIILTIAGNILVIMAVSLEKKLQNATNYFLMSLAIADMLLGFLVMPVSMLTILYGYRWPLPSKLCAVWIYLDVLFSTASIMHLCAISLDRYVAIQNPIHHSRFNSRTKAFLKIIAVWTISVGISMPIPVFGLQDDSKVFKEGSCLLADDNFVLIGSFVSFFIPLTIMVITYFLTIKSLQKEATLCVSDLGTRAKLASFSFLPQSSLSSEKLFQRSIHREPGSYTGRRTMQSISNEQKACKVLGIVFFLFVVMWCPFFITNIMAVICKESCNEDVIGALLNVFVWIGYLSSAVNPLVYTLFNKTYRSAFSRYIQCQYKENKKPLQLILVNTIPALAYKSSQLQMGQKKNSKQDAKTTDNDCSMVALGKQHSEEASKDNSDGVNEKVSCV
# Biological target: T1, 5-HT2AR (serotonin 2A receptor) (Homo sapiens, UniProt P28223)
# T1 construct: expressed in transfected cells
# Assay type: cell-based
substance,measurement,value
Nortriptyline hydrochloride,LSD-induced 5-HT2AR activation,reduced or even completely prevented
